Values quoted from earlier work as cited in patent US10329542B2, “HBV RNAse H purification and enzyme inhibitors” (Saint Louis University, priority 2012, dated 2019).

Tested on: HBV
Details: human, in vivo; cited from earlier work

Substance: Interferon α: FDA approved drug to treat chronic HBV
- Patients with sustained clinical improvement: 20-30%
